Values quoted from earlier work in patent US11833171B2, “Materials and methods relating to stabilised polymeric silicate compositions” (United Kingdom Research and Innovation, priority 2014, dated 2023).

Details: 25° C.

## silicic acid [aqueous silicate]
  maximum solubility of aqueous silicate: 1700 µM
